Laboratory results reported in paper PMC8842224 (2022).

Amino acid sequences for entries named in this document (tags omitted).
UniProt P0DMS8, whole entry: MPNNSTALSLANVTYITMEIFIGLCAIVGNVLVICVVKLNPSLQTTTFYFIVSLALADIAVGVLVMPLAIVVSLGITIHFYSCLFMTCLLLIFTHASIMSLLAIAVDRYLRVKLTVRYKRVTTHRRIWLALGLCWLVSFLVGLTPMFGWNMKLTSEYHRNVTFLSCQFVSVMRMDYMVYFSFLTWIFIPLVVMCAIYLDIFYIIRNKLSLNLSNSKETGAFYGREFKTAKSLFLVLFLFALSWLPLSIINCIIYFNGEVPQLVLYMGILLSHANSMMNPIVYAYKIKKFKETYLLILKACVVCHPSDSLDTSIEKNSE

Key:
[1] = molecular target: T1, human A2BAR (Homo sapiens, UniProt P29275); test: biochemical; details: read-out: hA2B percentage displacement of specific binding at 1 μM
T1 sequence (P29275 1-332): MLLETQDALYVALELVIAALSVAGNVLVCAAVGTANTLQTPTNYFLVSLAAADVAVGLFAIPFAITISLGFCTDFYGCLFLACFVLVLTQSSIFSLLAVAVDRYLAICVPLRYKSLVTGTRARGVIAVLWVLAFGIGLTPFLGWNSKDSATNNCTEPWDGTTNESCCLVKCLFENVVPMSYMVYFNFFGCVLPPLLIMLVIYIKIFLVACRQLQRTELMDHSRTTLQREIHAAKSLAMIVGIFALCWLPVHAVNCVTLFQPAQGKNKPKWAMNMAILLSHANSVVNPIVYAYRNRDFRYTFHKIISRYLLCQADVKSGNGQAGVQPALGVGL

[2] = molecular target: human A3AR (Homo sapiens, UniProt P0DMS8); test: biochemical; details: 3 h, read-out: hA3 percentage displacement of specific binding at 1 μM
[3] = molecular target: human A2AAR (Homo sapiens, UniProt P29274); details: [3H]ZM241385, human HeLa cells, n = 2

N#Cc1c(-c2ccccc2)nc(N)nc1-c1ccccc1 [18a] was tested, and the inhibition at 1 µM [1] was 33% and the inhibition at 1 µM [2] was 1%.

In the case of N#Cc1c(-c2ccccc2)nc(N)nc1-c1ccsc1 [18aa], the inhibition at 1 µM [1] is reported as 40% and the inhibition at 1 µM [2] is reported as 1%.

With N#Cc1c(-c2ccccc2)nc(N)nc1-c1ccncc1 [18ab] the inhibition at 1 µM [1] was 1% and the inhibition at 1 µM [2] was 12%.

N#Cc1c(-c2ccccc2)nc(N)nc1-c1cccnc1 [18ac] gave an inhibition at 1 µM [1] of 20% and an inhibition at 1 µM [2] of 1%.

In the case of N#Cc1c(-c2ccccc2)nc(N)nc1C1CCCC1 [18ad], the “hA2A percentage displacement of specific binding at 1 μM” value (from here on “hA2A percentage displacement”) [3] is reported as 12%, the inhibition at 1 µM [1] is reported as 1% and the inhibition at 1 µM [2] is reported as 19%.

In the case of N#Cc1c(-c2ccccc2)nc(N)nc1C1CCCCC1 [18ae], the “hA2A percentage displacement” value [3] is reported as 10%, the inhibition at 1 µM [1] is reported as 5% and the inhibition at 1 µM [2] is reported as 2%.

N#Cc1c(-c2ccccc2)nc(N)nc1-c1ccc2ccccc2c1 [18af] showed an inhibition at 1 µM [1] of 3% and an inhibition at 1 µM [2] of 8%.

With N#Cc1c(-c2ccccc2)nc(N)nc1-c1ccc(-c2ccccc2)cc1 [18ag] the “hA2A percentage displacement” value [3] was 16% and the inhibition at 1 µM [1] was 1%.

N#Cc1c(-c2cccc(Cl)c2)nc(N)nc1-c1cccc(Cl)c1 [18ah] showed an inhibition at 1 µM [2] of 1%.

N#Cc1c(-c2cccc(Cl)c2)nc(N)nc1-c1cc(Cl)cc(Cl)c1 [18ai] showed an inhibition at 1 µM [1] of 9% and an inhibition at 1 µM [2] of 2%.

N#Cc1c(-c2cccc(Cl)c2)nc(N)nc1-c1ccc2c(c1)OCO2 [18aj] showed an inhibition at 1 µM [2] of 26%.

N#Cc1c(-c2ccc(F)cc2)nc(N)nc1-c1ccc2c(c1)OCO2 [18ak] showed an inhibition at 1 µM [1] of 2% and an inhibition at 1 µM [2] of 22%.

In the case of COc1ccc(-c2nc(N)nc(-c3ccc(OC)cc3)c2C#N)cc1 [18al], the “hA2A percentage displacement” value [3] is reported as 2%, the inhibition at 1 µM [1] is reported as 1% and the inhibition at 1 µM [2] is reported as 9%.

N#Cc1c(-c2ccccc2)nc(N)nc1-c1ccccc1F [18b] was tested, and the inhibition at 1 µM [1] was 34% and the inhibition at 1 µM [2] was 8%.

With N#Cc1c(-c2ccccc2)nc(N)nc1-c1ccccc1Cl [18c] the “hA2A percentage displacement” value [3] was 1%, the inhibition at 1 µM [1] was 9% and the inhibition at 1 µM [2] was 1%.

COc1ccccc1-c1nc(N)nc(-c2ccccc2)c1C#N [18d] was tested, and the inhibition at 1 µM [1] was 14% and the inhibition at 1 µM [2] was 8%.

N#Cc1c(-c2ccccc2)nc(N)nc1-c1cccc(F)c1 [18e] gave an inhibition at 1 µM [2] of 2%.

N#Cc1c(-c2ccccc2)nc(N)nc1-c1cccc(Cl)c1 [18f] gave an inhibition at 1 µM [2] of 1%.

Molecule COc1cccc(-c2nc(N)nc(-c3ccccc3)c2C#N)c1 [18g] has an inhibition at 1 µM [2] of 12%.

With N#Cc1c(-c2ccccc2)nc(N)nc1-c1cccc(O)c1 [18h] the inhibition at 1 µM [2] was 9%.

Molecule N#Cc1cccc(-c2nc(N)nc(-c3ccccc3)c2C#N)c1 [18i] has an inhibition at 1 µM [1] of 19% and an inhibition at 1 µM [2] of 1%.

N#Cc1c(-c2ccccc2)nc(N)nc1-c1ccc(F)cc1 [18j] showed an inhibition at 1 µM [1] of 7% and an inhibition at 1 µM [2] of 10%.

Work on N#Cc1c(-c2ccccc2)nc(N)nc1-c1ccc(Br)cc1 [18k] yielded an inhibition at 1 µM [1] of 8% and an inhibition at 1 µM [2] of 2%.

Work on COc1ccc(-c2nc(N)nc(-c3ccccc3)c2C#N)cc1 [18l] yielded an inhibition at 1 µM [1] of 8% and an inhibition at 1 µM [2] of 11%.

For N#Cc1c(-c2ccccc2)nc(N)nc1-c1ccc(O)cc1 [18m], the inhibition at 1 µM [1] was 14% and the inhibition at 1 µM [2] was 18%.

Cc1ccc(-c2nc(N)nc(-c3ccccc3)c2C#N)cc1 [18n] gave an inhibition at 1 µM [1] of 28% and an inhibition at 1 µM [2] of 16%.

N#Cc1c(-c2ccccc2)nc(N)nc1-c1ccc(F)cc1F [18o] showed an inhibition at 1 µM [1] of 7% and an inhibition at 1 µM [2] of 12%.

COc1ccc(-c2nc(N)nc(-c3ccccc3)c2C#N)c(OC)c1 [18q] gave an inhibition at 1 µM [1] of 13% and an inhibition at 1 µM [2] of 1%.

N#Cc1c(-c2ccccc2)nc(N)nc1-c1cc(Cl)cc(Cl)c1 [18s] was tested, and the inhibition at 1 µM [1] was 1% and the inhibition at 1 µM [2] was 10%.

Molecule COc1cc(OC)cc(-c2nc(N)nc(-c3ccccc3)c2C#N)c1 [18t] has an inhibition at 1 µM [2] of 3%.

In the case of COc1cc(-c2nc(N)nc(-c3ccccc3)c2C#N)cc(OC)c1OC [18v], the inhibition at 1 µM [1] is reported as 3% and the inhibition at 1 µM [2] is reported as 13%.

Molecule N#Cc1c(-c2ccccc2)nc(N)nc1-c1c(F)cc(F)cc1F [18w] has an inhibition at 1 µM [1] of 2% and an inhibition at 1 µM [2] of 19%.

Work on N#Cc1c(-c2ccccc2)nc(N)nc1-c1ccco1 [18x] yielded an inhibition at 1 µM [2] of 9%.

Work on N#Cc1c(-c2ccccc2)nc(N)nc1-c1cccs1 [18y] yielded an inhibition at 1 µM [2] of 41%.

With N#Cc1c(-c2ccccc2)nc(N)nc1-c1ccoc1 [18z] the inhibition at 1 µM [1] was 37% and the inhibition at 1 µM [2] was 3%.

With CNc1nc(-c2ccccc2)c(C#N)c(-c2ccccc2)n1 [19a] the inhibition at 1 µM [1] was 14% and the inhibition at 1 µM [2] was 2%.

COc1ccc(-c2nc(Nc3ccccc3)nc(-c3ccccc3)c2C#N)cc1 [19ac] gave an inhibition at 1 µM [2] of 31%.

In the case of CNc1nc(-c2ccccc2)c(C#N)c(-c2ccc(C)cc2)n1 [19ad], the “hA2A percentage displacement” value [3] is reported as 11% and the inhibition at 1 µM [2] is reported as 7%.

Cc1ccc(-c2nc(Nc3ccccc3)nc(-c3ccccc3)c2C#N)cc1 [19ae] showed an inhibition at 1 µM [1] of 4% and an inhibition at 1 µM [2] of 1%.

In the case of N#Cc1c(-c2ccccc2)nc(Nc2ccccc2)nc1-c1cc(F)cc(F)c1 [19ai], the inhibition at 1 µM [1] is reported as 2% and the inhibition at 1 µM [2] is reported as 1%.

With N#Cc1c(-c2ccccc2)nc(Nc2ccccc2)nc1-c1cc(Cl)cc(Cl)c1 [19al] the inhibition at 1 µM [1] was 4% and the inhibition at 1 µM [2] was 1%.

CNc1nc(-c2ccccc2)c(C#N)c(-c2cc(OC)cc(OC)c2)n1 [19am] showed an inhibition at 1 µM [2] of 2%.

For COc1cc(OC)cc(-c2nc(Nc3ccccc3)nc(-c3ccccc3)c2C#N)c1 [19an], the inhibition at 1 µM [2] was 1%.

CCNc1nc(-c2ccccc2)c(C#N)c(-c2ccc3c(c2)OCO3)n1 [19ap] gave an inhibition at 1 µM [2] of 1%.

Molecule N#Cc1c(-c2ccccc2)nc(Nc2ccccc2)nc1-c1ccc2c(c1)OCO2 [19aq] has an inhibition at 1 µM [2] of 25%.

With CNc1nc(-c2ccccc2)c(C#N)c(-c2cc(OC)c(OC)c(OC)c2)n1 [19ar] the inhibition at 1 µM [1] was 1% and the inhibition at 1 µM [2] was 15%.

Work on COc1cc(-c2nc(Nc3ccccc3)nc(-c3ccccc3)c2C#N)cc(OC)c1OC [19as] yielded an inhibition at 1 µM [1] of 1% and an inhibition at 1 µM [2] of 20%.

CNc1nc(-c2ccccc2)c(C#N)c(-c2ccco2)n1 [19at] gave an inhibition at 1 µM [1] of 51% and an inhibition at 1 µM [2] of 4%.

N#Cc1c(-c2ccccc2)nc(Nc2ccccc2)nc1-c1ccco1 [19au] showed an inhibition at 1 µM [2] of 4%.

N#Cc1c(-c2ccccc2)nc(Nc2ccccc2)nc1-c1cccs1 [19aw] showed an inhibition at 1 µM [1] of 1% and an inhibition at 1 µM [2] of 3%.

N#Cc1c(-c2ccccc2)nc(Nc2ccccc2)nc1-c1ccoc1 [19ay] showed an inhibition at 1 µM [1] of 14% and an inhibition at 1 µM [2] of 2%.

CCNc1nc(-c2ccccc2)c(C#N)c(-c2ccccc2)n1 [19b] was tested, and the inhibition at 1 µM [1] was 17% and the inhibition at 1 µM [2] was 16%.

N#Cc1c(-c2ccccc2)nc(Nc2ccccc2)nc1-c1ccsc1 [19ba] gave an inhibition at 1 µM [1] of 17% and an inhibition at 1 µM [2] of 22%.

In the case of CCNc1nc(-c2ccccc2)c(C#N)c(-c2cccnc2)n1 [19be], the inhibition at 1 µM [2] is reported as 2%.

N#Cc1c(-c2ccccc2)nc(Nc2ccccc2)nc1-c1cccnc1 [19bf] was tested, and the inhibition at 1 µM [2] was 17%.

CNc1nc(-c2ccccc2)c(C#N)c(C2CCCCC2)n1 [19bg] was tested, and the inhibition at 1 µM [1] was 1% and the inhibition at 1 µM [2] was 11%.

For COc1ccc(-c2nc(Nc3ccccc3)nc(-c3ccc(OC)cc3)c2C#N)cc1 [19bn], the inhibition at 1 µM [1] was 2% and the inhibition at 1 µM [2] was 1%.

With N#Cc1c(-c2ccccc2)nc(Nc2ccccc2)nc1-c1ccccc1 [19c] the inhibition at 1 µM [1] was 34% and the inhibition at 1 µM [2] was 4%.

In the case of CNc1nc(-c2ccccc2)c(C#N)c(-c2ccccc2F)n1 [19d], the “hA2A percentage displacement” value [3] is reported as 15% and the inhibition at 1 µM [2] is reported as 3%.

Molecule N#Cc1c(-c2ccccc2)nc(Nc2ccccc2)nc1-c1ccccc1F [19e] has an inhibition at 1 µM [2] of 2%.

For CNc1nc(-c2ccccc2)c(C#N)c(-c2ccccc2OC)n1 [19h], the inhibition at 1 µM [1] was 9% and the inhibition at 1 µM [2] was 1%.

With CNc1nc(-c2ccccc2)c(C#N)c(-c2cccc(F)c2)n1 [19j] the “hA2A percentage displacement” value [3] was 11% and the inhibition at 1 µM [2] was 1%.

For N#Cc1c(-c2ccccc2)nc(Nc2ccccc2)nc1-c1cccc(F)c1 [19k], the “hA2A percentage displacement” value [3] was 12% and the inhibition at 1 µM [2] was 9%.

In the case of CCNc1nc(-c2ccccc2)c(C#N)c(-c2cccc(Cl)c2)n1 [19m], the inhibition at 1 µM [1] is reported as 33% and the inhibition at 1 µM [2] is reported as 2%.

For N#Cc1c(-c2ccccc2)nc(Nc2ccccc2)nc1-c1cccc(Cl)c1 [19n], the inhibition at 1 µM [1] was 12% and the inhibition at 1 µM [2] was 15%.

For CNc1nc(-c2ccccc2)c(C#N)c(-c2cccc(O)c2)n1 [19o], the inhibition at 1 µM [1] was 29% and the inhibition at 1 µM [2] was 9%.

In the case of CNc1nc(-c2ccccc2)c(C#N)c(-c2cccc(OC)c2)n1 [19q], the inhibition at 1 µM [1] is reported as 31% and the inhibition at 1 µM [2] is reported as 3%.

In the case of COc1cccc(-c2nc(Nc3ccccc3)nc(-c3ccccc3)c2C#N)c1 [19r], the inhibition at 1 µM [1] is reported as 15% and the inhibition at 1 µM [2] is reported as 9%.

CNc1nc(-c2ccccc2)c(C#N)c(-c2cccc(C#N)c2)n1 [19s] was tested, and the inhibition at 1 µM [2] was 1%.

Molecule CCNc1nc(-c2ccccc2)c(C#N)c(-c2cccc(C#N)c2)n1 [19t] has an inhibition at 1 µM [2] of 1%.

For N#Cc1cccc(-c2nc(Nc3ccccc3)nc(-c3ccccc3)c2C#N)c1 [19u], the “hA2A percentage displacement” value [3] was 19% and the inhibition at 1 µM [2] was 2%.

For N#Cc1c(-c2ccccc2)nc(Nc2ccccc2)nc1-c1ccc(F)cc1 [19w], the “hA2A percentage displacement” value [3] was 10% and the inhibition at 1 µM [2] was 9%.

For CN(C)c1nc(-c2ccccc2)c(C#N)c(-c2cccc(Cl)c2)n1 [20b], the “hA2A percentage displacement” value [3] was 2% and the inhibition at 1 µM [1] was 1%.
